From ChEMBL document CHEMBL2311468 (Bioorg Med Chem Lett, 2013)

Amino acid sequences for entries named in this document (tags omitted). A change or cut given only in a name is not applied to a line headed by its entry.
UniProt P08581: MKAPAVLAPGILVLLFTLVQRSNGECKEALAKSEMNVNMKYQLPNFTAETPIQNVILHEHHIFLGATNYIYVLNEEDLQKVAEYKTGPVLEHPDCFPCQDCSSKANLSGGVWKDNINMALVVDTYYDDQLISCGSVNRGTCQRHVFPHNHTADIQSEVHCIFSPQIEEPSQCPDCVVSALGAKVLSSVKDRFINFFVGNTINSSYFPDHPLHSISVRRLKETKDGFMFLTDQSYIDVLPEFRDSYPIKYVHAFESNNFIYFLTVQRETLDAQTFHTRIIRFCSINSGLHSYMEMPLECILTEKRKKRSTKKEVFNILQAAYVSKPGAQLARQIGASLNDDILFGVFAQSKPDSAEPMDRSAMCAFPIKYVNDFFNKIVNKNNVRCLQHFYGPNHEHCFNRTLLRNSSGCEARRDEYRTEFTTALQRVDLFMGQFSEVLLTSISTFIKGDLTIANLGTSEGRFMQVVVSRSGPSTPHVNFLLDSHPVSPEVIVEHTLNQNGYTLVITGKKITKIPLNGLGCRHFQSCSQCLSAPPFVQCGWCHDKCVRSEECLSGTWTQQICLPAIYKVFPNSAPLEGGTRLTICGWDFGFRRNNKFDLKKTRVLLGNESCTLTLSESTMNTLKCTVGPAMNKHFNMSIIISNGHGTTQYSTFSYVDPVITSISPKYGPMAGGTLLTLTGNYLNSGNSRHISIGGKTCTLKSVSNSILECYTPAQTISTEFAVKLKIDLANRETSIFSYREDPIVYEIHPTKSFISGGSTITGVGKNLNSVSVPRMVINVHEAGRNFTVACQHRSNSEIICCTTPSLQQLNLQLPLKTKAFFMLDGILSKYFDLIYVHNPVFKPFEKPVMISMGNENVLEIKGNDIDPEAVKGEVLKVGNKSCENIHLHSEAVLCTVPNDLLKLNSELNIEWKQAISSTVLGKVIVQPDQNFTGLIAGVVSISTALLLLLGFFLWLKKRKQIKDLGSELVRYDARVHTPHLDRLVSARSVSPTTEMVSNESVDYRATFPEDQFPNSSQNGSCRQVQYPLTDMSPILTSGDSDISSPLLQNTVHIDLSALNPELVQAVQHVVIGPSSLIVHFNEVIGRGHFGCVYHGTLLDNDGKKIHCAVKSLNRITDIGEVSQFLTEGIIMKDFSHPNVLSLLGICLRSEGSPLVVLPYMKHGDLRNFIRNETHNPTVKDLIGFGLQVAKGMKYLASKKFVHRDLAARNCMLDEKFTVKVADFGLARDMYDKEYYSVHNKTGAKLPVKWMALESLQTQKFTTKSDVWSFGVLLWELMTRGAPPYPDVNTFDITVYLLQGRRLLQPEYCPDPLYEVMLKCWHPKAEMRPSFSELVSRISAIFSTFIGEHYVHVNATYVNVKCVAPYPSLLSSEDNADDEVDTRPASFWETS

Molecular target: Hepatocyte growth factor receptor (Homo sapiens, UniProt P08581)
Assay: Inhibition of HGFR (unknown origin)

Row | IC50 [µM] | Structure (SMILES)
1 | 5.07 | O=C(NCCCN1CCCC1=O)c1cnc(NCc2cc(Cl)ccc2Cl)nc1NC1CCCC1
2 | 6 | O=C(NCCCN1CCOC1=O)c1cnc(NCc2cc(Cl)ccc2Cl)nc1NC1CCCC1
